Test results taken from ChEMBL document CHEMBL1133213, “Synthesis, molecular modeling and preliminary biological evaluation of 1-amino-3-phosphono-3-cyclopentene-1-carboxylic acid and 1-amino-3-phosphono-2-cyclopentene-1-carboxylic acid, two novel agonists of metabotropic glutamate receptors of group III” (Bioorg Med Chem Lett, 2000).
pEC50: −log10 of the molar value.

The chains behind the UniProt entries cited, without tags or fusion partners. Where a name states a change or a piece, a line headed by the entry shows the natural chain unless it says otherwise.
UniProt Q14833: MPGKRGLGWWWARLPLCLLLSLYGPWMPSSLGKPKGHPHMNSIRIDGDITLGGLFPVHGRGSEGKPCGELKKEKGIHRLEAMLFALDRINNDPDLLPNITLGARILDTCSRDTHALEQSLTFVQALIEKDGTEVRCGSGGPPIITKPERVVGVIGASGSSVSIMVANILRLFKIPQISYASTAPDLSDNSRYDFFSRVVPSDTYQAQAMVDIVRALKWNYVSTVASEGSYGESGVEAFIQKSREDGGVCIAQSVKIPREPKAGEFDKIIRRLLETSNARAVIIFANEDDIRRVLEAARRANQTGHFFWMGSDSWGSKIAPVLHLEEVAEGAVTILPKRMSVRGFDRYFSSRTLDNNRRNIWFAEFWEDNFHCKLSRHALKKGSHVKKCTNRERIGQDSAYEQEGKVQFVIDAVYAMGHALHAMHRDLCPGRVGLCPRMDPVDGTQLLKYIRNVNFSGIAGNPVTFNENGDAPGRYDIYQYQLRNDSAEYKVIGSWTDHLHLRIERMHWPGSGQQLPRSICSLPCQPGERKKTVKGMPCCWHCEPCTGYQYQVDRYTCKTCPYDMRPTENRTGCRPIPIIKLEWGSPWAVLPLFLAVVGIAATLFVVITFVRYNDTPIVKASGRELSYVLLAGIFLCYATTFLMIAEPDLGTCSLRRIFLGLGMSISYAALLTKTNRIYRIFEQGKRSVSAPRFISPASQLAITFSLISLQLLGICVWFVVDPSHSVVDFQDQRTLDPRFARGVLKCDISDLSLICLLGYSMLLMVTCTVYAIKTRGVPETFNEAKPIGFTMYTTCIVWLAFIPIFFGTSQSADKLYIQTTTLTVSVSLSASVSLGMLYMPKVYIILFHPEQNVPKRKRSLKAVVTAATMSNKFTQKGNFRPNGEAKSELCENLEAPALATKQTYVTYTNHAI

Biological target: Metabotropic glutamate receptor 4 (Homo sapiens, UniProt Q14833)
Test: Agonistic activity at Metabotropic glutamate receptor 4 expressed in mammalian cells by GTPgammaS binding assay
Assay type: cell-based
Method in brief: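 [35S]-GTPγS binding to membranes prepared from CHO cells expressing human mGlu4a. Stimulation is normalised to that given by 1 mM L-Glu. Points are mean ± SEM of three determinations from one experiment.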

## N[C@@]1(C(=O)O)CC[C@@H](C(=O)O)C1
  pEC50: 4.41
